## Yeast mating assay 2: variants of the scFv Ab-91

Source: Engelhart et al. 2022 (doi:10.1038/s41597-022-01779-4), MIT Lincoln Laboratory and A-Alpha Bio; data file from the FLAb repository.

All variants were tested on one target, the spike HR2 peptide PDVDLGDISGINAS (SARS-CoV-2).

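Phage display of a naive human antibody library on the peptide gave the parent. Variants in AAYL51 differ from the parent at up to three CDR positions; double and triple changes were sampled at random. AlphaSeq pools MATa yeast showing the antibodies with MATalpha yeast showing the peptide. Binding brings cells together so that they mate, and sequencing counts the barcode pairs among the diploids. A regression on co-assayed BCL2-family reference pairs converts the normalised counts of each replicate to an apparent Kd. Mating was done three times.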

Ab-91 is the parent antibody, in scFv form: VL, then three GGGGS repeats, then VH. The light chain is unchanged in all variants.
VL: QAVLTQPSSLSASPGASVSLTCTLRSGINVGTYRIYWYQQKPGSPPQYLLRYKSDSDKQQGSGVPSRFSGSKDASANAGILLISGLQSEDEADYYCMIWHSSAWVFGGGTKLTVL
VH: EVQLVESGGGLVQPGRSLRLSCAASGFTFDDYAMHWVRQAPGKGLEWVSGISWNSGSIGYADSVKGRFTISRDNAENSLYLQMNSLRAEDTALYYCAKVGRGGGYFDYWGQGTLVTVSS

Positions count from residue 1 of the parent VH; D31Y puts Y in place of D. Every variant below is changed at G100 of the VH (sequential numbering). The read-out is the apparent dissociation constant on a log10 scale (nM): the lower, the stronger. A mean of the replicates is given; it leaves out those without a signal. A pair that was not seen in any replicate is written "no signal"; this usually means weak binding, but a binder can also be missed. As a blank, each scFv also met three strains without target: over library AAYL51, 21% of these pairings were detected, typically at 4.54 and seldom below 3.26. The control count says in how many pairings with the empty strains this scFv gave a signal.

D31Y/D62E/G100K: 0.19 (3 of 3 replicates; controls 1 of 9).
W53Q/G100R/F106D: 1.50 (3 of 3 replicates; controls 4 of 9).
I58R/G100C: 3.84 (2 of 3 replicates; controls 1 of 9).
Y60I/G100Y/G104M: 5.17 (2 of 3 replicates; controls 6 of 9).
D30H/G50D/G100D: no signal (0 of 3 replicates; controls 0 of 9).
G100Y/R101I/F106V: 2.30 (3 of 3 replicates; controls 0 of 9).
S57C/G100Y/D107S: no signal (0 of 3 replicates; controls 1 of 9).
W53P/D62P/G100A: no signal (0 of 3 replicates; controls 0 of 9).
M34H/G100D/F106W: 4.19 (1 of 3 replicates; controls 1 of 9).
G50F/S52N/G100D: 4.70 (1 of 3 replicates; controls 4 of 9).
D30A/G100M/G102L: 0.81 (3 of 3 replicates; controls 3 of 9).
Y32H/G100I/F106D: 0.90 (3 of 3 replicates; controls 0 of 9).
S63A/V99I/G100W: 0.94 (3 of 3 replicates; controls 3 of 9).
D31T/S63V/G100N: 5.54 (2 of 3 replicates; controls 2 of 9).
G26T/S55N/G100M: 3.51 (1 of 3 replicates; controls 0 of 9).
I51K/G100S/Y108W: 5.66 (1 of 3 replicates; controls 0 of 9).
D31Y/S57N/G100V: no signal (0 of 3 replicates; controls 0 of 9).
H35E/G100V/G103M: 5.29 (3 of 3 replicates; controls 5 of 9).
S63K/G100V/G104C: no signal (0 of 3 replicates; controls 0 of 9).
K65N/G100A/R101M: no signal (0 of 3 replicates; controls 1 of 9).
G100A/Y108A: 3.16 (3 of 3 replicates; controls 1 of 9).
H35S/V99P/G100A: 5.01 (2 of 3 replicates; controls 6 of 9).
G26Q/K65Y/G100H: 4.56 (3 of 3 replicates; controls 1 of 9).
G26F/M34V/G100C: no signal (0 of 3 replicates; controls 1 of 9).
F29H/Y60Q/G100K: no signal (0 of 3 replicates; controls 1 of 9).
M34T/G100T: no signal (0 of 3 replicates; controls 1 of 9).
D30C/S55H/G100Q: no signal (0 of 3 replicates; controls 0 of 9).
N54F/I58D/G100S: no signal (0 of 3 replicates; controls 0 of 9).
N54M/G100H/D107S: no signal (0 of 3 replicates; controls 2 of 9).
H35E/W53I/G100M: no signal (0 of 3 replicates; controls 2 of 9).
S55K/G100V/G103K: 2.26 (3 of 3 replicates; controls 2 of 9).
G50R/V64H/G100H: no signal (0 of 3 replicates; controls 0 of 9).
D30R/G100H: 3.62 (1 of 3 replicates; controls 3 of 9).
Y32M/S52P/G100A: 5.83 (3 of 3 replicates; controls 4 of 9).
S52N/G100L: 1.92 (2 of 3 replicates; controls 0 of 9).
D62N/G100N: no signal (0 of 3 replicates; controls 0 of 9).
V64Y/G100W/Y108W: no signal (0 of 3 replicates; controls 2 of 9).
S57Y/G100C/G102L: no signal (0 of 3 replicates; controls 0 of 9).
W53Y/G100M: no signal (0 of 3 replicates; controls 0 of 9).
T28I/S63Q/G100S: 2.41 (3 of 3 replicates; controls 0 of 9).
G100W/Y105M/D107I: 1.90 (3 of 3 replicates; controls 2 of 9).
H35T/G100M/R101L: 3.50 (1 of 3 replicates; controls 4 of 9).
F29R/I51N/G100L: 3.13 (1 of 3 replicates; controls 0 of 9).
S63E/V99F/G100Y: no signal (0 of 3 replicates; controls 0 of 9).
I58M/G100D/Y105W: 2.96 (3 of 3 replicates; controls 4 of 9).
G26A/G100H: 4.44 (1 of 3 replicates; controls 0 of 9).

The opening 6 entries, copied out:

changes	mean, log10 nM	detected	empty controls
D31Y/D62E/G100K	0.19	3 of 3	1 of 9
W53Q/G100R/F106D	1.50	3 of 3	4 of 9
I58R/G100C	3.84	2 of 3	1 of 9
Y60I/G100Y/G104M	5.17	2 of 3	6 of 9
D30H/G50D/G100D	no signal	0 of 3	0 of 9
G100Y/R101I/F106V	2.30	3 of 3	0 of 9